Results from patent US8268836B2, “Compound useful as a c-Met inhibitor” (Eli Lilly and Company, priority 2010, dated 2012).

Chains of the proteins cited; added tags and fusions are not shown. Residues count along the entry.
UniProt P08581, 25-1390 limits assumed: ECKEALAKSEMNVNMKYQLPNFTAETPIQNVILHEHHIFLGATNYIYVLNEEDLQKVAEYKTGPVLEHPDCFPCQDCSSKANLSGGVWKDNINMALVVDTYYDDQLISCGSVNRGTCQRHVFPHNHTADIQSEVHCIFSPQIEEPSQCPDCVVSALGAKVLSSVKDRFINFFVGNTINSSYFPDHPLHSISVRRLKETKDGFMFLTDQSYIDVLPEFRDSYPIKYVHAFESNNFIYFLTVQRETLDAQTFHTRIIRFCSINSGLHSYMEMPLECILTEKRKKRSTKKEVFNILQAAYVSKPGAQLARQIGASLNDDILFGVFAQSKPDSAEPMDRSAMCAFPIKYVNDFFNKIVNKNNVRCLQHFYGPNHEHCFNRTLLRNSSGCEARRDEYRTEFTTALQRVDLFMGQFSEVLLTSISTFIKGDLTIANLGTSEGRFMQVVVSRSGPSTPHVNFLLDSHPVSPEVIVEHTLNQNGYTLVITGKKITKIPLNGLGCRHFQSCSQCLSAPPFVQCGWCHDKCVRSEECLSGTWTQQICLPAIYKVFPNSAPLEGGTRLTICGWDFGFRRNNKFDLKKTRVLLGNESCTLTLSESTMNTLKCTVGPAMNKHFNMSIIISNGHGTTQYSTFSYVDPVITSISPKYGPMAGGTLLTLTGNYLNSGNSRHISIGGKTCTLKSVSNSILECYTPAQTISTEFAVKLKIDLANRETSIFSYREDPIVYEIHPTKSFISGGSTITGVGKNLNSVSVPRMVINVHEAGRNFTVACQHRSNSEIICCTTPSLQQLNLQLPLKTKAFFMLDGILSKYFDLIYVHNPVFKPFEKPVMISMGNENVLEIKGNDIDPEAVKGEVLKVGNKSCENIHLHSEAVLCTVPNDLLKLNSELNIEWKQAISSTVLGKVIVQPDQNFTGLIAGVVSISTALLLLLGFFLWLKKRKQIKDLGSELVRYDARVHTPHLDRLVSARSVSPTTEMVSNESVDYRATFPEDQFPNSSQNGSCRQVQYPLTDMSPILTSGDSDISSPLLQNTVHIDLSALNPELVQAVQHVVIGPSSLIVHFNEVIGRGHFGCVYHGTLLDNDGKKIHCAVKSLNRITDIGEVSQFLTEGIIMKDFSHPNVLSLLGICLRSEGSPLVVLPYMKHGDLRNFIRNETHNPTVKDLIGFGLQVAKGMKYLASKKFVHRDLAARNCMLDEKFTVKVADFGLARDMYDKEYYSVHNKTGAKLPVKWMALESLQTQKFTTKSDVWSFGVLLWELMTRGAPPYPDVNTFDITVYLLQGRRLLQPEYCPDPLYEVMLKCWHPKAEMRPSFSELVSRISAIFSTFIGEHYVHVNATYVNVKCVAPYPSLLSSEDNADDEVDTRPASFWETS

Experiments:
[1] = Plasma concentration in IVTI studies; details: mouse, oral, 10% acacia
Method: In IVTI studies, each compound is administered orally and formulated in 10% w/v acacia. Mouse blood samples are collected with anti-coagulant (EDTA-purple top Vacutainer tube) post-dose using cardiac puncture techniques. Tubes are inverted for 3-5 times and are placed on ice until centrifugation at 3000 RPM (1800×g) for 10 min at 4° C. to obtain plasma. Aliquots of plasma are pipetted and stored in a clean 96 well plate. Plasma samples are stored immediately at −80° C. Shipments of plasma samples are packed in dry ice and samples are frozen at −80° C. until analysis.
A 0.1-mg/mL stock solution of each drug was prepared and is serially diluted into pooled mouse plasma to prepare standards ranging from 1 to 5000 ng/mL. Plasma standards or samples (0.025 mL) in 96-well plates are treated by protein precipitation with the addition of a 0.1-0.2 ml of methanol: acetonitrile (1/1, v/v) containing internal standard. […] Samples and standards are analyzed with a Sciex API 4000 Triple Quadrupole Mass Spectrometer (Sciex, Division of MDS Inc., Toronto, Canada) coupled to a Shimadzu HPLC System (LC-10AD, Shimadzu Corporation) and a Gilson 215 Autosampler. […] Quantitation is performed using multiple reaction monitoring (MRM) at the following transitions: Example 1 (m/z 363.05 to m/z 163.10) and the reference compound 20 (m/z 363.05 to m/z 163.10). […]

[2] = target: human c-Met (phospho-c-Met in S114 tumors) (Homo sapiens, UniProt P08581); test: c-Met in vivo target inhibition (IVTI) assay, S114 tumors in nude mice; design: species or system mouse
Method: S114 cells (over-expressing both human HGF and human c-Met) are cultured in a growth media (Dulbecco's Modified Eagle Medium) supplemented with 10% fetal calf serum and expanded. Cells are harvested and washed twice with phosphate buffered saline and 2×10^6 cells are mixed with equal volume of BD Matrigel™ matrix (BD Bioscience, Franklin, N.J.), and injected subcutaneously into the flank of nude mice (athymic nude, from Harlan, Indianapolis, Ind.). At day 8 after implant, compounds (formulated in 10% acacia or 1% carboxymethylcellulose/0.5% sodium lauryl sulfate/0.05% antifoam as suspension) are administered to animals by oral gavage at 50 mg/kg. Animals are sacrificed at 2 h post dose, and tumors are harvested and stored frozen until needed.
Frozen tumors are pulverized using motar-pestel. The pulverized tissues are transferred to a tube containing Lysing Matrix D beads (MP Biomedicals, Solon, Ohio) and 600 μL lysis buffer (RIPA buffer, containing 50 mM Tris-HCl, pH 7.4, 150 mM NaCl, 1% NP-40, 0.5% sodium deoxycholate, 0.1% SDS, from Boston Bioproducts, Phosphatase Inhibitors I and II and Protease Inhibitor (Sigma, St. Louis, Mo.)). A FastPrep® Cell Disrupter (MP Biomedicals, Inc.) is used to disrupt the tissue and lyse the cells. Lysates are passed through a 20 gauge needle and transferred to a clean tube. Protein concentration is determined by Bradford method known to one of skill in the art.
Tumor lysates are loaded onto MSD® phosphor-Met ELISA plates and phosphor-c-Met level is determined using the same protocol as H460 cell-based ELISA. The S114 in vivo inhibition ED50 value for the compound of example 1 is 0.32 mg/kg with a 95% confidence interval bounded by 0.23 mg/kg and 0.41 mg/kg. The TEC50 for example 1 is 0.18 μM with a 95% confidence interval bounded by 0.13 μM and 0.23 μM.
In IVTI studies, each compound is administered orally and formulated in 10% w/v acacia. Mouse blood samples are collected with anti-coagulant (EDTA-purple top Vacutainer tube) post-dose using cardiac puncture techniques. […]

Dynamic solubility = test: Dynamic solubility
Method: The solubility of Example 1 and the reference compound (example 25 of the '808 publication) are measured by placing a small quantity of each in a glass vial, capping and rotating the vial overnight at ambient conditions (18 h). The media included simulated gastric fluid (SGF) which comprise of 0.01N HCl, 0.05% sodium lauryl sulfate, and 0.2% NaCl; fasted state simulated intestinal fluid (SIF-fasted) which composed of 29 mM NaH2PO4, 3 mM Na taurocholate, 0.75 mM lecithin, 103 mM NaCl, and NaOH to pH 6.5; fed state simulated intestinal fluid (SIF-fed) which comprise of 144 mM acetic acid, 15 mM Na taurocholate, 3.75 mM lecithin, 204 mM NaCl, and NaOH to pH 5.0; and pH 4.5, 6, 7.5 buffers which are 28-56 mM phosphate buffers. The compound concentrations are determined using Agilent 1200 HPLC (LC5) with a UV detector. Mobile phase uses A (85%) which is water containing 0.1% TFA and B (15%) which is ACN at a flow rate of 1 mL/min and run time of 10 min. Column of Zorbax, Bonus-RP (3.5 μm, 4.6×75 mm; SN: USTM002428) is used in the studies.

Plasma conc. 8 mg/Kg after 8 h ([1]; 8 mg/kg): 14 ng/mL | Plasma conc. 20 mg/Kg after 8 h ([1]; 20 mg/kg): 17 ng/mL | Single dose IVTI % inhibition after 2 h ([2]; 20 mg/Kg dose, 2 h, experiment separate from head to head study): 84**** % | % phos-Met inhibition at 8 mg/kg after 8 h ([2]; S114 tumors, oral 8 mg/kg, 8 h): −5.45% | % phos-Met inhibition at 20 mg/kg after 8 h ([2]; S114 tumors, oral 20 mg/kg, 8 h): 0.57% | Dynamic solubility, 0.01N HCl (Dynamic solubility; 0.01N HCl): 332 µg/mL | Dynamic solubility, 0.1N HCl (Dynamic solubility; 0.1N HCl): 1894 µg/mL | Dynamic solubility, SIF Fasted (Dynamic solubility; fasted state simulated intestinal fluid pH 6.5, 18 h ambient): 1 µg/mL | Dynamic solubility, SIF Fed (Dynamic solubility; fed state simulated intestinal fluid pH 5.0, 18 h ambient): 5 µg/mL | Dynamic solubility, pH ≧ 4 buffer (Dynamic solubility; pH ≧ 4 phosphate buffer): ~0.002 mg/mL | Dynamic solubility, SGF (Dynamic solubility; simulated gastric fluid, 18 h ambient): 57 µg/mL | Dynamic solubility, Water (Dynamic solubility; water): 1 µg/mL
Structure (SMILES): Cn1cc(-c2ccc3nnc(Sc4ccc5ncn(C)c5c4)n3n2)cn1

Marks after values point to notes of the source that are not given here.
